The source of these data is PubChem BioAssay AID1029 (Sanford-Burnham Center for Chemical Genomics, 2008).

The list shows a part of the results, in another mix than the full data. Active and inactive are the calls of the source.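 Rule for the calls: active = inhibition above the mean of the plate negative controls plus 5 SD (cut at about 13% in these data); inactive = the rest.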

One may read the inhibition as the relative decrease from the control value, in per cent.

A short description of this test: blockers of IgG-bead uptake by macrophages – imaging, J774A.1 cells, IgG beads, primary screen (AID 1029).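 Note: phagocytic index as fraction of beads internalized from green versus red external bead signal; plate controls were DMSO negative control for no effect and cytochalasin-D positive control for full effect.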 The settings on record: J774A.1 macrophage IgG-bead phagocytosis, at 5 µM, stronger effect = higher value.
Take `Cc1ccc(C)c(NP(C)(=O)Oc2ccccc2)c1` (stereo not drawn): the inhibition is inactive: -0.2%.
Then `Cc1cc(C)cc(OP(C)(=O)Nc2ccccn2)c1` (stereo not drawn), with inactive: -1.3%.
Then `CCOC(=O)c1ccc(NP(C)(=O)Oc2cc(C)cc(C)c2)cc1` (stereo not drawn), with inactive: -9.18%; and `Cc1cc(C)cc(OP(C)(=O)Nc2ccc(C)cc2C)c1` (stereo not drawn), with inactive: 0.2%.
Take `Cc1nc2ccc3ccccc3c2s1.O=[N+]([O-])c1cc([N+](=O)[O-])c(O)c([N+](=O)[O-])c1`: the inhibition was inactive: -0.4%.
Then `CP(=O)(Nc1ccc(SC(F)(F)F)cc1)Oc1ccccc1` (stereo not drawn), with inactive: 1.33%; and `CN1CCCCC1COC(=O)C1(O)c2ccccc2CCc2ccccc21` (stereo not drawn), with inactive: -5.85%; and `CP(=O)(Nc1ccccc1Br)Oc1ccccc1` (stereo not drawn), with inactive: -2.53%.
Regarding `CP(=S)(Nn1cnnc1)Oc1ccccc1` (stereo not drawn), the inhibition was inactive: -1.3%.
Turning to `CP(=O)(Nc1ccccn1)Oc1ccc(Cl)cc1` (stereo not drawn), the inhibition is inactive: 0.6%.
Then `CCOP(C)(=S)SCC(=O)NC(C)C(=O)O` (stereo not drawn), with inactive: 0.1%; and `Cc1cc(C)cc(OP(C)(=O)Nc2ccc(SC(F)(F)F)cc2)c1` (stereo not drawn), with inactive: -7.61%; and `Cc1cccc(C)c1OP(C)(=O)Nc1ccc(SC(F)(F)F)cc1` (stereo not drawn), with inactive: -10.5%.
Then `COc1ccc(OP(C)(=O)Nc2cccc(F)c2)cc1` (stereo not drawn), with inactive: 0.6%; and `COc1ccccc1OP(C)(=O)Nc1ccc(C)cc1` (stereo not drawn), with inactive: -0.6%.
Turning to `Cc1ccc(NP(C)(=O)Oc2ccccc2)c(C)c1` (stereo not drawn), the inhibition is inactive: 0.6%.
Then `CCOC(=O)c1ccc(NP(C)(=O)Oc2ccccc2)cc1` (stereo not drawn), with inactive: 1.68%; and `CC(C)(C)c1ccc(OP(C)(=O)Nc2ccc(SC(F)(F)F)cc2)cc1` (stereo not drawn), with inactive: -8.04%; and `Cc1nc2ccc3ccccc3c2o1.O=[N+]([O-])c1cc([N+](=O)[O-])c(O)c([N+](=O)[O-])c1`, with inactive: 0.9%.
Then `COc1ccccc1OP(C)(=O)Nc1ccc(C)c(C)c1` (stereo not drawn), with inactive: -0.1%; and `CP(=O)(Nc1ccccn1)Oc1ccccc1` (stereo not drawn), with inactive: -1.2%; and `COc1ccc(OP(C)(=O)Nc2ccccn2)cc1` (stereo not drawn), with inactive: -0.6%.
Turning to `CN(C)CCOC(=O)C(O)(c1ccccc1)C1CCCC1` (stereo not drawn), the inhibition is inactive: 1%.
Regarding `CC(C)(C)c1ccc(OP(C)(=O)O)cc1`, the inhibition was inactive: -1%.
For `COc1ccccc1OP(C)(=O)Nc1c(C)n(C)n(-c2ccccc2)c1=O` (stereo not drawn), the inhibition was inactive: 0.2%.
Take `CP(=O)(Oc1ccccc1)N1CCOC1=O` (stereo not drawn): the inhibition is inactive: -0.4%.
Then `CCN(CC)CC(O)COC(=O)C(O)(c1ccccc1)C1CCCCC1` (stereo not drawn), with inactive: 0.1%.
For `COc1ccc(OP(C)(=O)Nc2ccc(Br)cc2)cc1` (stereo not drawn), the inhibition is inactive: -4.1%.
Take `CCOC(=O)c1ccc(NP(C)(=O)Oc2ccc(Cl)cc2)cc1` (stereo not drawn): the inhibition was inactive: -12.1%.
Then `CP(=O)(OC12CC3CC(CC(C3)C1)C2)OC12CC3CC(CC(C3)C1)C2`, with inactive: -1%; and `CN(C)CCOC(=O)C(O)(c1ccccc1)C1CCCCC1` (stereo not drawn), with inactive: -0.1%; and `COc1ccc(OP(C)(=O)Nc2cccc(Br)c2)cc1` (stereo not drawn), with inactive: -2.3%.
Then `Cc1ccccc1NP(C)(=O)Nc1ccccc1C`, with inactive: 0.2%; and `CCOP(C)(=S)SCC(=O)NC(C)(CC)C(=O)O` (stereo not drawn), with inactive: 1%.
With `O=C(OCCN1CCN(CCOCc2ccccc2)CC1)C(O)(c1ccccc1)c1ccccc1`, the inhibition is inactive: -6.28%.
Then `CP(=O)(Nc1ccccc1F)Oc1ccccc1` (stereo not drawn), with inactive: -0.4%.
On to `CC(C)c1ccc(OP(C)(=O)Nc2ccc(SC(F)(F)F)cc2)cc1` (stereo not drawn), for which the inhibition is inactive: -1.95%.
On to `CCOC(=O)c1ccc(NP(C)(=O)Oc2ccc(F)cc2)cc1` (stereo not drawn), for which the inhibition was inactive: -2.53%.
